Assay: Particle size analysis on a Horiba Laser light scattering particle size analyzer
Type: physicochemical
Conditions: after low shear mixing into xylene dispersion (Comparative Example A)
Description: As a comparison to the dispersions of the present invention, 13 grams “LAROFLEX MP25” polymer resin (vinyl chloride-isobutyl vinyl ether copolymer, a product of BASF Corporation, Charlotte, N.C.) was dissolved into 832 grams of xylene. […] The mixture was stirred at low speed (1000 rpm) and with low shear for 0.5 hours to provide adequate mixing until a homogenous mixture was achieved.
The diluted sample was then run though a Mini Zeta Netzsch mill for 150 minutes at 2000 rpm.

## On1ccccc1=S.On1ccccc1=S.[Cu] [Copper Pyrithione, copper pyrithione]
  Mean Particle Size: 3.05 Microns
  Median Particle Size: 3.36 Microns

Source: patent US6821326B2, “Small particle copper pyrithione” (Arch Chemicals, Inc., priority 2002, dated 2004)
